# Reference: patent US9408845B2, “Formulations containing pyridazine compounds” (Northwestern University, priority 2006, dated 2016)
# Tested on: nitric oxide (NO) production in BV-2 microglial cells
# Experiment: LPS-stimulated accumulation of nitrite (NO metabolite) in BV-2 cells, Griess assay
# Type: cell-based, mouse
# Settings: same concentration range
smiles,measurement,value
"Cc1cc(-c2ccccc2)nnc1N1CCN(c2ncccn2)CC1 [MW01-2-151SRM, 4-methyl-6-phenyl-3-(4-pyrimidin-2-ylpiperazin-1-yl)pyridazine]","selectivity (inhibits IL-1β but not production of NO, iNOS, COX-2)",selective
